Experimental data published in ChEMBL document CHEMBL1122932, “Metabolism of phencyclidine. The role of the carbinolamine intermediate in the formation of lactam and amino acid metabolites of nitrogen heterocycles” (J Med Chem, 1985).

Legend:
Format in all cases: ADME
Mus musculus [1] = species on record: Mus musculus; experiment: In vitro level of metabolite in mice liver microsomes at 1 hour
Method in brief: (§1)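 12500g liver supernatant from 10 male ICR mice (homogenized in ice-cold pH 7.4 Tris with 0.15 M KCl; stored -70 °C, used within 15 h). Incubated with phencyclidine and NADP/glucose 6-phosphate/nicotinamide/MgSO4 cofactor at 37 °C, 120 osc/min, 100% O2. Metabolites measured by GLC (N-benzylphenylalanine internal standard, nitrogen detector) or HPLC (ketamine internal standard), calibrated by spiking microsomal blanks.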

Mus musculus [2] = species on record: Mus musculus; experiment: In vitro level of metabolite in mice liver microsomes at 3 hours; method in brief: as §1
Mus musculus [3] = species on record: Mus musculus; experiment: In vitro level of metabolite in mice liver microsomes at 2 hours; method in brief: as §1

SMILES	Metabolite levels (Mus musculus [1]) [µg]	Metabolite levels (Mus musculus [2]) [µg]	Metabolite levels (Mus musculus [3]) [µg]
O[C@H]1CC[C@](c2ccccc2)(N2CCCCC2)CC1	3.1	5.1	3.6
O[C@H]1CC[C@@](c2ccccc2)(N2CCCCC2)CC1	6.7	8	7.7
